These are literature values, as cited in patent publication US20130216523A1, “Methods for Facilitating Diagnosis, Prognosis and Treatment of Cancer by Detecting HER1 Expression” (LABORATORY CORPORATION OF AMERICA HOLDINGS, priority 2011, published 2013).

This data set deals with recurrent and/or metastatic SCCHN. The following applies: Vermorken et al. 2008, 2007.

As to cetuximab, the “subjects with SCCHN that respond to treatment” value was 13-16%.
